# Values joined by “and” are separate entries in the source; they are usually repeats but may differ in a detail not shown here. Identical values can stand only once.
# What was measured:
# Mus musculus [1] = test: In vivo antitumor activity against P388 Lymphocytic Leukemia measured as Survivors on day 5 at 20.25 mg/kg; 6/6
# Mus musculus [2] = test: In vivo antitumor activity against P388 Lymphocytic Leukemia in mice at 40.50 mg/kg expressed as T/C value; conditions: dose 40.5 mg/kg
# Mus musculus [3] = test: In vivo antitumor activity against P388 Lymphocytic Leukemia measured as Survivors on day 5 at 81 mg/kg; 6/6
# Mus musculus [4] = test: In vivo antitumor activity against P388 Lymphocytic Leukemia in mice at 162 mg/kg expressed as T/C value
# Mus musculus [5] = test: In vivo antitumor activity against P388 Lymphocytic Leukemia in mice at 20.25 mg/kg expressed as T/C value
# Mus musculus [6] = test: In vivo antitumor activity against P388 Lymphocytic Leukemia measured as Survivors on day 5 at 40.50 mg/kg; 6/6; conditions: dose 40.5 mg/kg
# Mus musculus [7] = test: In vivo antitumor activity against P388 Lymphocytic Leukemia in mice at 81 mg/kg expressed as T/C value
# P388 = test: (§1) Weight difference when tested in vivo for antitumor activity against P388 Lymphocytic Leukemia; weight difference expressed as (T-C)
# A204 = test: In vitro cytotoxicity against human A204 Rhabdomyosarcoma cell line; assay type: functional, cell-based
# Procedure, shortened: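 A204 human rhabdomyosarcoma soft-agarose colony assay. 10^4 trypsin/EDTA-dissociated cells in 0.3% agarose over a 0.5% agarose base, in DMEM with 10% FCS, at 37 °C and 5% CO2. Compound was applied in an upper medium layer on day 1 for 24 h, then washed out. Colonies >60 µm were counted after 7–9 days by tetrazolium stain and image analysis. Quadruplicates with vehicle controls, at least four concentrations up to 100 or 1000 µg/mL. IC50 from a monoexponential least-squares fit over at least three preparations, mean ± SE.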
# Mus musculus [8] = test: In vivo antitumor activity against P388 Lymphocytic Leukemia measured as Survivors on day 5 at 162 mg/kg; 6/6
# Mus musculus [9] = test: In vivo antitumor activity against P388 Lymphocytic Leukemia measured as Survivors on day 5 at 200 mg/kg, w.r.t. compound 6; 6/6
# Mus musculus [10] = test: In vivo antitumor activity against P388 Lymphocytic Leukemia measured as Survivors on day 5 at 1600 mg/kg, w.r.t. compound 6; 6/6
# Mus musculus [11] = test: In vivo antitumor activity against P388 Lymphocytic Leukemia in mice at 400 mg/kg expressed as T/C value w.r.t. compound 6
# Mus musculus [12] = test: In vivo antitumor activity against P388 Lymphocytic Leukemia measured as Survivors on day 5 at 800 mg/kg, w.r.t. compound 6; 6/6
# Mus musculus [13] = test: In vivo antitumor activity against P388 Lymphocytic Leukemia in mice at 1600 mg/kg expressed as T/C value w.r.t. compound 6
# Mus musculus [14] = test: In vivo antitumor activity against P388 Lymphocytic Leukemia in mice at 200 mg/kg expressed as T/C value w.r.t. compound 6
# Mus musculus [15] = test: In vivo antitumor activity against P388 Lymphocytic Leukemia measured as Survivors on day 5 at 400 mg/kg, w.r.t. compound 6; 6/6
# Mus musculus [16] = test: In vivo antitumor activity against P388 Lymphocytic Leukemia in mice at 800 mg/kg expressed as T/C value w.r.t. compound 6
# Mus musculus [17] = test: Weight difference when tested in vivo for antitumor activity against P388 Lymphocytic Leukemia w.r.t. compound 6; weight difference expressed as (T-C)
# Mus musculus [18] = test: In vivo antitumor activity against P388 Lymphocytic Leukemia measured as Survivors on day 5 at 25 mg/kg; 6/6
# Mus musculus [19] = test: In vivo antitumor activity against P388 Lymphocytic Leukemia measured as Survivors on day 5 at 100 mg/kg; 6/6
# Mus musculus [20] = test: In vivo antitumor activity against P388 Lymphocytic Leukemia measured as Survivors on day 5 at 12.5 mg/kg; 6/6
# Mus musculus [21] = test: (§2) In vivo antitumor activity against P388 Lymphocytic Leukemia in mice at 100 mg/kg expressed as T/C value
# Mus musculus [22] = test: as §2; remark: listed apart in the source
# Mus musculus [23] = test: In vivo antitumor activity against P388 Lymphocytic Leukemia measured as survivors on day 5 at 100 mg/kg; 5/5
# Mus musculus [24] = test: In vivo antitumor activity against P388 Lymphocytic Leukemia measured as survivors on day 5 at 12.5 mg/kg; 6/6
# Mus musculus [25] = test: In vivo antitumor activity against P388 Lymphocytic Leukemia measured as survivors on day 5 at 200 mg/kg; 6/6
# Mus musculus [26] = test: In vivo antitumor activity against P388 Lymphocytic Leukemia measured as survivors on day 5 at 25 mg/kg; 6/6
# Mus musculus [27] = test: In vivo antitumor activity against P388 Lymphocytic Leukemia measured as survivors on day 5 at 50 mg/kg; 6/6
# Mus musculus [28] = test: (§3) In vivo antitumor activity against P388 Lymphocytic Leukemia in mice at 12.5 mg/kg expressed as T/C value
# Mus musculus [29] = test: as §3; remark: listed apart in the source
# Mus musculus [30] = test: (§4) In vivo antitumor activity against P388 Lymphocytic Leukemia in mice at 25 mg/kg expressed as T/C value
# Mus musculus [31] = test: as §4; remark: listed apart in the source
# Mus musculus [32] = test: In vivo antitumor activity against P388 Lymphocytic Leukemia measured as Survivors on day 5 at 50 mg/kg; 6/6
# Mus musculus [33] = test: In vivo antitumor activity against P388 Lymphocytic Leukemia measured as Survivors on day 5 at 6.25 mg/kg; 6/6
# Mus musculus [34] = test: In vivo antitumor activity against P388 Lymphocytic Leukemia in mice at 50 mg/kg expressed as T/C value
# Mus musculus [35] = test: In vivo antitumor activity against P388 Lymphocytic Leukemia in mice at 6.25 mg/kg expressed as T/C value
# Mus musculus [36] = test: In vivo antitumor activity against P388 Lymphocytic Leukemia in mice at 800 mg/kg expressed as T/C value
# Mus musculus [37] = test: In vivo antitumor activity against P388 Lymphocytic Leukemia in mice expressed as T/C value
# Mus musculus [38] = test: Weight difference when tested in vivo for antitumor activity against P388 Lymphocytic Leukemia w.r.t. compound 6
# Mus musculus [39] = test: In vivo antitumor activity against P388 Lymphocytic Leukemia measured as Survivors on day 5 at 125 mg/kg; 6/6
# Mus musculus [40] = test: In vivo antitumor activity against P388 Lymphocytic Leukemia measured as Survivors on day 5 at 15.63 mg/kg; 6/6
# Mus musculus [41] = test: In vivo antitumor activity against P388 Lymphocytic Leukemia measured as Survivors on day 5 at 31.25 mg/kg; 6/6
# Mus musculus [42] = test: In vivo antitumor activity against P388 Lymphocytic Leukemia in mice at 125 mg/kg expressed as T/C value
# Mus musculus [43] = test: In vivo antitumor activity against P388 Lymphocytic Leukemia in mice at 15.63 mg/kg expressed as T/C value
# Mus musculus [44] = test: In vivo antitumor activity against P388 Lymphocytic Leukemia in mice at 31.25 mg/kg expressed as T/C value
# Mus musculus [45] = test: In vivo antitumor activity against P388 Lymphocytic Leukemia measured as Survivors on day 5 at 62.5 mg/kg; 6/6
# Mus musculus [46] = test: In vivo antitumor activity against P388 Lymphocytic Leukemia in mice at 62.5 mg/kg expressed as T/C value
# Mus musculus [47] = test: as §1
smiles,measurement,setting,value
CC[C@](O)(C(=O)OCC1=CC[N+]2([O-])CC[C@@H](O)[C@@H]12)c1ccccc1 (stereo partly specified),Survivors,Mus musculus [1],6
same,T/C,Mus musculus [2],151%
same,Survivors,Mus musculus [3],6
same,T/C,Mus musculus [4],214%
same,T/C,Mus musculus [5],143%
same,Survivors,Mus musculus [6],6
same,T/C,Mus musculus [7],169%
same,Weight difference,P388,-2.4 [middle of 4 runs]
same,IC50,A204,11 µg/mL
same,Survivors,Mus musculus [8],6
CCC(O)(C(=O)OCC1=CCN2CCC(O)C12)c1ccccc1 (stereo unspecified),Survivors,Mus musculus [9],6
same,Survivors,Mus musculus [10],6
same,T/C,Mus musculus [11],151%
same,Survivors,Mus musculus [12],6
same,T/C,Mus musculus [13],142%
same,T/C,Mus musculus [14],133%
same,Survivors,Mus musculus [15],6
same,T/C,Mus musculus [16],160%
same,Weight difference,Mus musculus [17],-2.2 and -3.2 and -1.6
CC(O)(C(=O)OCC1=CC[N+]2([O-])CCC(O)C12)c1ccccc1 (stereo unspecified),Survivors,Mus musculus [9],6
same,Survivors,Mus musculus [18],6
same,Survivors,Mus musculus [19],6
same,Survivors,Mus musculus [20],6
same,Survivors,Mus musculus [10],6
same,T/C,Mus musculus [21],198%
same,T/C,Mus musculus [22],180%
same,T/C,Mus musculus [11],175%
same,Survivors,Mus musculus [12],6
same,Survivors,Mus musculus [23],5
same,Survivors,Mus musculus [24],6
same,Survivors,Mus musculus [25],6
same,Survivors,Mus musculus [26],6
same,Survivors,Mus musculus [27],6
same,T/C,Mus musculus [28],136%
same,T/C,Mus musculus [29],105%
same,T/C,Mus musculus [14],152%
same,T/C,Mus musculus [30],139%
same,T/C,Mus musculus [31],96%
same,Survivors,Mus musculus [15],6
same,Survivors,Mus musculus [32],6
same,Survivors,Mus musculus [33],6
same,T/C,Mus musculus [34],140%
same,T/C,Mus musculus [35],105%
same,T/C,Mus musculus [36],196%
same,T/C,Mus musculus [37],166%
same,Weight change,Mus musculus [38],-2.6 [middle of 4 runs]
CC[C@@](O)(C(=O)OCC1=CC[N+]2([O-])CC[C@@H](O)[C@@H]12)c1ccccc1 (stereo partly specified),Survivors,Mus musculus [39],6
same,Survivors,Mus musculus [40],6
same,Survivors,Mus musculus [41],6
same,T/C,Mus musculus [42],125%
same,T/C,Mus musculus [43],110%
same,T/C,Mus musculus [44],110%
same,Survivors,Mus musculus [45],6
same,T/C,Mus musculus [46],114%
same,Weight difference,Mus musculus [47],-1.3
same,Weight difference,P388,-0.8 and -0.7

# — ChEMBL document CHEMBL1124172 (J Med Chem, 1988)
